Laboratory results reported in US4215215A, “9-Phenyl-nonate traene compounds” (Hoffmann-La Roche Inc., priority 1979, dated 1980).

System: mice
Conditions: mouse, in vivo, ip

Compound: COc1cc(C)c(C=CC(C)=CC=CC(C)=CC(=O)O)c(C)c1C [Substance A, 9-(4-methoxy-2,3,6-trimethyl-phenyl)-3,7-dimethyl-nona-2,4,6,8-tetraen-1-oic acid]
- LD10 (1440 min): > 4000 mg/kg
- LD90 (1440 min): > 4000 mg/kg
- LD10 (14400 min): 580 mg/kg
- LD90 (14400 min): 890 mg/kg
- LD10 (28800 min): 580 mg/kg
- LD90 (28800 min): 890 mg/kg

Read-outs that look alike come from different tables or passages of the source.
